The target of assay [1] is 5-hydroxytryptamine receptor 1D (Rattus norvegicus, UniProt P28565).
Assay [2] has as its target 5-hydroxytryptamine receptor 1B (Rattus norvegicus, UniProt P28564).

By UniProt entry, the sequences of proteins in these tests, tags left out. Where a name states a change or a piece, a line headed by the entry shows the natural chain unless it says otherwise.
UniProt P28565: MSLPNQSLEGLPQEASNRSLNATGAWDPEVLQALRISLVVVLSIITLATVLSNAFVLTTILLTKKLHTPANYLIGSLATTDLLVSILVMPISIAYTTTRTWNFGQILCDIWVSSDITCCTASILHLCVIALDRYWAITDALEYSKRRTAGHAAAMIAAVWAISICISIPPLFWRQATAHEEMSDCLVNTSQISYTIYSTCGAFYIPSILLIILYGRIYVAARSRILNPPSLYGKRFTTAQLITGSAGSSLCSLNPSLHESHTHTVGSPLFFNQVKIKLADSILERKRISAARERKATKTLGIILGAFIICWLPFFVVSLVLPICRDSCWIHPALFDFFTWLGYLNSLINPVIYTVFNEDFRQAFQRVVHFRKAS
UniProt P28564, whole entry: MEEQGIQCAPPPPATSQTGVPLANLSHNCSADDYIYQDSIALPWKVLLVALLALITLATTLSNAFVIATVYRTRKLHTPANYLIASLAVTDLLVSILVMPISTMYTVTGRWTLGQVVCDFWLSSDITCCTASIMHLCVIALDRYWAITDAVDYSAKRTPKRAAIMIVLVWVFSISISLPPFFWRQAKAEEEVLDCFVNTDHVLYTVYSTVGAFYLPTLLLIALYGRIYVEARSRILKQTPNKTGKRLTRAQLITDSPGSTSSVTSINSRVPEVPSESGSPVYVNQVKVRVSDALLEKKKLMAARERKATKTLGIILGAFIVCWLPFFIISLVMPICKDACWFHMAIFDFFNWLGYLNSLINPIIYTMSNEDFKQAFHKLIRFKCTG

In BindingDB's records for doi:10.1007/bf00168557 (Boehringer Ingelheim Italia, 1995) one finds Ki data, which are given here for one compound.

Each structure is given as a SMILES string.

Regarding `CCCN(CCC)C1CCc2cccc(O)c2C1` (configuration not stated), the results for the Ki in assay [1] and in assay [2] were 0.955 µM and 7.24 µM, respectively.
